Experimental data published in patent US12286452B2, “Amphiphilic aminoglycoside connexin hemichannel inhibitors” (Texas Tech University System, priority 2018, dated 2025).

By UniProt entry, the sequences of proteins in these tests, tags left out.
UniProt P17302, whole entry: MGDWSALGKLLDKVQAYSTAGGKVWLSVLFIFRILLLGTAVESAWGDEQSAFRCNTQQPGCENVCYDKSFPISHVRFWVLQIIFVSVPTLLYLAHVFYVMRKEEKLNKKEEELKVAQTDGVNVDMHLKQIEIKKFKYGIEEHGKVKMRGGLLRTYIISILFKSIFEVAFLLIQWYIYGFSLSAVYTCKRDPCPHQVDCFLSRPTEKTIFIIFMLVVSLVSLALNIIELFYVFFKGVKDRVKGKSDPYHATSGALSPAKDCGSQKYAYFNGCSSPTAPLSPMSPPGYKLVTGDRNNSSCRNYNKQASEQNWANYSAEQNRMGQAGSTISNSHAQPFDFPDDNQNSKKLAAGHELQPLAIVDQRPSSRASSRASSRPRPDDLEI

Target: T1, Cx43 HCs (Homo sapiens, UniProt P17302)
T1 construct: expressed in transfected cells
Assay: Cx43-dependent growth complementation assay in E. coli LB2003
Type: cell-based
Conditions: Table 7

- IC50: 48 ± 2 µM
Structure (SMILES): NCC1O[C@H](OC2C(N)CC(N)C(OC3O[C@H](CO)C(O)C(N)[C@H]3O)C2O)C(O)[C@@H](O)[C@@H]1O (stereo in doubt) [Kanamycin A, reference compound]
